From patent US20250281513A1, “USE OF PSYCHEDELICS TO TREAT DEMENTIA” (priority 2021, published 2025)

By UniProt entry, the sequences of proteins in these tests, tags left out. Where a name states a change or a piece, a line headed by the entry shows the natural chain unless it says otherwise.
UniProt P05067: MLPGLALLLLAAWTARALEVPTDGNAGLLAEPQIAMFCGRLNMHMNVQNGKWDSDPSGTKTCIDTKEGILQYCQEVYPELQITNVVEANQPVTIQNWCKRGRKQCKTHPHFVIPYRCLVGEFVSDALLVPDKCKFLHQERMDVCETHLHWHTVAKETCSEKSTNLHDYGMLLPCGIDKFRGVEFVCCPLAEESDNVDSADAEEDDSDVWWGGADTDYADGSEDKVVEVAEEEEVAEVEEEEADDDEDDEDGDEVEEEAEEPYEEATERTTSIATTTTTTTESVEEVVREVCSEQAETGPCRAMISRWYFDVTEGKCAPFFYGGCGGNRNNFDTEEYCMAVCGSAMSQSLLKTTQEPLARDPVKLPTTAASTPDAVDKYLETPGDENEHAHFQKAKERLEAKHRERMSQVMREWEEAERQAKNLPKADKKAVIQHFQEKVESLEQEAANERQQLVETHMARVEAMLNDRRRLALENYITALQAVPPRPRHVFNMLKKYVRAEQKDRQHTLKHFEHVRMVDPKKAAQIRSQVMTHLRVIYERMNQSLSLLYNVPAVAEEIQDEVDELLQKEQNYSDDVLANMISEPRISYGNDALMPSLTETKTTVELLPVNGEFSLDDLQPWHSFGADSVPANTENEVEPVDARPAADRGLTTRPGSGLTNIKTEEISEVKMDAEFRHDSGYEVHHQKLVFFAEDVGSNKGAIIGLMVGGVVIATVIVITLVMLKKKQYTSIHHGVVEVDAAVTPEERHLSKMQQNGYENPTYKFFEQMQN

Assays:
Type in all cases: cell-based, murine
[1] = system: ATP Binding Cassette Subfamily F Member 1 (ABCF1); test: qRT-PCR expression of ABCF1 in RAW264.7 cells post Aβ 1-16 or psychedelics (Example 4); settings: RAW cells, 10 uM, 2 hours (FIG. 8)
Procedure: (§1) • 1. Macrophage cell line RAW264.7 (ATCC) were grown to 80% confluency in growth media (DMEM+10% FBS+glutamine). • 2. Confluent cells were treated with 10 uM of soluble amyloid beta (Aβ 1-16) for 2 hours or psychedelics at the prescribed concentrations at 2 hours post-stimulation or 24 or after restimualtion at 26 hours. Post treatment the cells were washed with PBS and cells were collected for RNA isolation followed by qRT-PCR to assess for expression levels of proteins involved in AD pathology; Hypoxia-inducible factor 1-alpha (Hif1-α), ATP Binding Cassette Subfamily F Member 1 (ABCF1). Analysis by qPCR: • 3. Post treatment with amyloid beta at different time points, the reaction was stopped by removing the media with the drug. Cells were then collected and RNA was isolated from these cells. • 4. After checking the quality of the RNA, cDNA was generated and qPCR was run with different target primers and GAPDH as the house keeping gene • 5. Normalized against the expression level of GAPDH, and further normalized against the expression level of untreated cells, the fold change expression level of different target genes was calculated and tabulated for all conditions.

[2] = system: Hypoxia-inducible factor 1-alpha (Hif1-α); test: qRT-PCR expression of Hif-α in RAW264.7 cells post soluble amyloid beta treatment (Example 3); settings: RAW cells, 10 uM, 24 hours
Procedure: (§2) • 1. Macrophage cell line RAW264.7 (ATCC) were grown to 80% confluency in growth media DMEM+10% FBS+glutamine) • 2. Confluent cells were treated with 10 uM of soluble amyloid beta (Aβ 1-16) for 2 hours and for 24 hours. Post treatment the cells were washed with PBS and cells were collected for RNA isolation followed by qRT-PCR to assess for expression levels of proteins involved in AD pathology; Hypoxia-inducible factor 1-alpha (Hif1-α), Melanotransferrin (p97), Tau protein (tau), 5-Hydroxytryptamine Receptor 2A (HTR2A), ATP Binding Cassette Subfamily F Member 1 (ABCF1) Analysis by qPCR:
(§3) • 1. Post treatment with amyloid beta at different time points, the reaction was stopped by removing the media with the drug. Cells were then collected and RNA was isolated from these • 2. After checking the quality of the RNA, cDNA was generated and qPCR was run with different target primers and GAPDH as the house keeping gene • 3. Normalized against the expression level of GAPDH, and further normalized against the expression level of untreated cells, the fold change expression level of different target genes was calculated and tabulated for all conditions.

[3] = system: 5-Hydroxytryptamine Receptor 2A (HTR2A); test: qRT-PCR expression of HTR2A in RAW264.7 cells post soluble amyloid beta treatment (Example 3); settings: RAW cells, 10 uM
Procedure: as §2, §3

[4] = system: Tau protein (tau); test: qRT-PCR expression of Tau in RAW264.7 cells post soluble amyloid beta treatment (Example 3); settings: RAW cells, 10 uM
Procedure: as §2, §3

[5] = system: Hypoxia-inducible factor 1-alpha (Hif1-α); test: qRT-PCR expression of Hif-α in RAW264.7 cells post Aβ 1-16 or psychedelics (Example 4); settings: RAW cells, 10 uM, 2 hours (FIG. 8)
Procedure: as §1

[6] = system: Melanotransferrin (p97); test: qRT-PCR expression of p97 in RAW264.7 cells post soluble amyloid beta treatment (Example 3); settings: RAW cells, 10 uM, 2 hours
Procedure: as §2, §3

[7] = system: ATP Binding Cassette Subfamily F Member 1 (ABCF1); test: qRT-PCR expression of ABCF1 in RAW264.7 cells post soluble amyloid beta treatment (Example 3); settings: RAW cells, 10 uM
Procedure: as §2, §3

Aβ 1-16: soluble amyloid beta (Aβ 1-16) used to treat RAW264.7 cells (DAEFRHDSGYEVHHQK; Amyloid-beta protein 42; UniProt P05067 672-687, looked up, fragment)
more than two folds: ABCF1 fold change expression compared to untreated cells ([7]; 2-hour treatment)
falls by half: ABCF1 expression level at 24 hours compared to the 2 hour timepoint ([7]; 24-hour treatment)
upregulation: ABCF1 expression compared to untreated cells [1] | Hif-α expression compared to untreated cells [2] | HTR2A expression compared to untreated cells ([3]; 2 hours) | Tau expression compared to untreated cells ([4]; 2 hours) | Tau expression compared to untreated cells ([4]; 24 hours) | HIF-alpha expression compared to untreated cells [5] | p97 expression compared to untreated cells [6] | ABCF1 expression compared to untreated cells ([7]; 2 hours) | ABCF1 expression compared to untreated cells ([7]; 24 hours)
downregulation: HTR2A expression compared to untreated cells ([3]; 24 hours)
